From US9801889B2, “Bicyclic heterocycles as FGFR4 inhibitors” (Incyte Corporation, priority 2015, dated 2017)

Amino acid sequences for entries named in this document (tags omitted). Residues count along the entry.
UniProt P22607, 23-806: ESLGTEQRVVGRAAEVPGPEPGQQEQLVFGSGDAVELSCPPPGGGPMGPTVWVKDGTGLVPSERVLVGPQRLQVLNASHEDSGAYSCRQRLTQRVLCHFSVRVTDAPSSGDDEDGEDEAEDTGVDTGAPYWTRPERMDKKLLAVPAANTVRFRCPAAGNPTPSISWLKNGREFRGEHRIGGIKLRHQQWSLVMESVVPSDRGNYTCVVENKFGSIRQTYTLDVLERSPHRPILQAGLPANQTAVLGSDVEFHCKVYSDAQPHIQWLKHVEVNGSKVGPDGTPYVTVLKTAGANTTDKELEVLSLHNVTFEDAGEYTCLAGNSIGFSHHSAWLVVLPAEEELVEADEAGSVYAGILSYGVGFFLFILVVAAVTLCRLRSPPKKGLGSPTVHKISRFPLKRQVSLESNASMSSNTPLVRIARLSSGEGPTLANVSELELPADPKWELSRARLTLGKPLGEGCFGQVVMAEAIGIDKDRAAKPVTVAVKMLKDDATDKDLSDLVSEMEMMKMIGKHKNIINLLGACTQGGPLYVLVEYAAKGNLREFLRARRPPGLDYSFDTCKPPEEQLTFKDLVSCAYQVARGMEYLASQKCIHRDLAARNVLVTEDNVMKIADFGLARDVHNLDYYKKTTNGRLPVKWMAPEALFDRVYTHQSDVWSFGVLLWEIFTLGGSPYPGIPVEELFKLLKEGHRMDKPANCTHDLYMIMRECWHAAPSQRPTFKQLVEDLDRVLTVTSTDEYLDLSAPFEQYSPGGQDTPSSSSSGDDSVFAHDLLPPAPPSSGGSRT
UniProt P21802, 22-821: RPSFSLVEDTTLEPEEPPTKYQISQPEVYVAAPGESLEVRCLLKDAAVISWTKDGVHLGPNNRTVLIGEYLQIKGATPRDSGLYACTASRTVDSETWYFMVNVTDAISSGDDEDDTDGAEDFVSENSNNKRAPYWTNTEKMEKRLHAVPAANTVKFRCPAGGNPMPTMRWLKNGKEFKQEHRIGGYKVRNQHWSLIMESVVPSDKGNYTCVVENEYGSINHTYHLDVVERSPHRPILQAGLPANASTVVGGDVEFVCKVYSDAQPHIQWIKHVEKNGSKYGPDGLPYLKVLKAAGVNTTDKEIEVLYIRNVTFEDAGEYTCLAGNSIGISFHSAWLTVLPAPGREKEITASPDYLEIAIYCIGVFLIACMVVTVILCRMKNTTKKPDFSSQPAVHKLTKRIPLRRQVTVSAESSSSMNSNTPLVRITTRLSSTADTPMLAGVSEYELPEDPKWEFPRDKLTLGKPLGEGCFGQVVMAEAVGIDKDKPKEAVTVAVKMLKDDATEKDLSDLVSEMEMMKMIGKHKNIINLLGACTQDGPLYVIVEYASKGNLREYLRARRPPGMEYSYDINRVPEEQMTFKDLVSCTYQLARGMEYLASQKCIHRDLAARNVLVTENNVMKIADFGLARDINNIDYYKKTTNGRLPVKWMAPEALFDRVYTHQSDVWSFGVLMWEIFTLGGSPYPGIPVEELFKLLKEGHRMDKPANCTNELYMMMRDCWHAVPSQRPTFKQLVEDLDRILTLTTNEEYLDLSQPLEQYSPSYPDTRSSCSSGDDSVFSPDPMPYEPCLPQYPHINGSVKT

Columns and labels:
FGFR3 = FGFR3 (Homo sapiens (Human), UniProt P22607); test: FGFR Enzymatic Assay (FRET peptide phosphorylation), FGFR3; conditions: IC50 ratio showing FGFR4 selectivity
FGFR2 = FGFR2 (Homo sapiens (Human), UniProt P21802); test: FGFR Enzymatic Assay (FRET peptide phosphorylation), FGFR2; conditions: IC50 ratio showing FGFR4 selectivity
[1] = pre-incubated for 5 to 10 minutes

Compound | FGFR3/FGFR4 (FGFR3; [1]) | FGFR3/FGFR4 (FGFR3; pre-incubated for 4 hours) | FGFR2/FGFR4 (FGFR2; [1]) | FGFR2/FGFR4 (FGFR2; pre-incubated for 4 hours)
C=CC(=O)Nc1cncc(-c2cc3c(cn2)CN(c2c(F)c(OC)cc(OC)c2F)C(=O)C32CC2)c1 [Example 3, N-(5-(2′-(2,6-difluoro-3,5-dimethoxyphenyl)-3′-oxo-2′,3′-dihydro-1′H-spiro[cyclopropane-1,4′-[2,7]naphthyridine]-6′-yl)pyridin-3-yl)acrylamide] | >100 | >100 | >50 | >100
C=CC(=O)N(C)c1cccc(-c2cc3c(cn2)CN(c2c(F)c(OC)cc(OC)c2F)C(=O)C32CC2)c1 [Example 9, N-(3-(2′-(2,6-difluoro-3,5-dimethoxyphenyl)-3′-oxo-2′,3′-dihydro-1′H-spiro[cyclopropane-1,4′-[2,7]naphthyridine]-6′-yl)phenyl)-N-methylacrylamide] | >2 | >10 | >3 | >10
C=CC(=O)Nc1cc(-c2cc3c(cn2)CN(c2c(F)c(OC)cc(OC)c2F)C(=O)C32CC2)ccc1CO [Example 13, N-(5-(2′-(2,6-difluoro-3,5-dimethoxyphenyl)-3′-oxo-2′,3′-dihydro-1′H-spiro[cyclopropane-1,4′-[2,7]naphthyridine]-6′-yl)-2-(hydroxymethyl)phenyl)acrylamide] | >25 | >50 |  | 
